The chains behind the UniProt entries cited, without tags or fusion partners. Where a name states a change or a piece, a line headed by the entry shows the natural chain unless it says otherwise.
UniProt P41143: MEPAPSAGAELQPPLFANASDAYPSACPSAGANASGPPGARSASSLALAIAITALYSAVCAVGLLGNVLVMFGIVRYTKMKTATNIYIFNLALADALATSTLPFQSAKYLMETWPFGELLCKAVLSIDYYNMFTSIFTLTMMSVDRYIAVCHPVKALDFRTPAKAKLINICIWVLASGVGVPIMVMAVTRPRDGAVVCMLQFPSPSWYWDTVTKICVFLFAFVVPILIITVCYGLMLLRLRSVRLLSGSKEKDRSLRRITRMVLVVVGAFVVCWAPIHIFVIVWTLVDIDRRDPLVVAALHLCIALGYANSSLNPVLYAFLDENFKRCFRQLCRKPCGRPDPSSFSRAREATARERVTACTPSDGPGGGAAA

According to article PMC6978697 (The Journal of Pharmacology and Experimental Therapeutics, 2020):

Biological target: HA-DOPr (HA-tagged δ opioid receptor) (Homo sapiens, UniProt P41143)
Experiment: saturation radioligand binding, HEK293 membranes
Conditions: labelled compound; 0.06–30 nM; pH 7.4; room temperature

For [^3H]-Diprenorphine, which “saturation radioligand binding, HEK293 membranes” value is on record?
The value was “Receptor expression levels were determined by saturation binding assays with [^3H]-diprenorphine”.
